# From PubChem BioAssay AID1259374 (The Scripps Research Institute Molecular Screening Center, 2018)
# The chains behind the UniProt entries cited, without tags or fusion partners.
# UniProt O75030, whole entry: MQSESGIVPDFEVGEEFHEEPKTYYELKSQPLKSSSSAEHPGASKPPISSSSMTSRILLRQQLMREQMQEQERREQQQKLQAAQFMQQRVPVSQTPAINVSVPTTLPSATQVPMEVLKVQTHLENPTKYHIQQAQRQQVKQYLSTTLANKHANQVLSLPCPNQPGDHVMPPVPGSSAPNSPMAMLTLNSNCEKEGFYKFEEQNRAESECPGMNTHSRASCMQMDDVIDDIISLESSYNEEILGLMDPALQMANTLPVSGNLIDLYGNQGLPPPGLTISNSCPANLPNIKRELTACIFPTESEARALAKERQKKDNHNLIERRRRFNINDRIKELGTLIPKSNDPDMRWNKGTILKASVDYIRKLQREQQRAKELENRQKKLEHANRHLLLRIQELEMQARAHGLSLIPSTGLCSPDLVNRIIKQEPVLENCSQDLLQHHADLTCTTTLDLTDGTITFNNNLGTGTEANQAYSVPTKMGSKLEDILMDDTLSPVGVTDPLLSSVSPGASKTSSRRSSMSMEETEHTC
# The entries are a selection whose mix differs from that of the whole data set. Active and inactive are the calls of the source. No stated cut-off is given here; in the data, active means inhibition above about 50%; inactive means the rest.
# Target: Microphthalmia-associated transcription factor (Homo sapiens) (UniProt O75030)
# Experiment: MITF inhibitors, primary screen, biochemical, AlphaScreen, human (AID 1259374);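 further: 0% = vehicle wells with protein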
# Details: AlphaScreen MITF homodimerization, bead proximity signal; at 2.6 µM; stronger effect = higher value
row,Compound,inhibition
1,CP(=O)(O)OC(c1ccccc1)C(Cl)(Cl)C(F)(F)F (centres undefined),inactive: -7.22%
2,CN(C)/N=C/c1ccc(-c2c([N+](=O)[O-])cc([N+](=O)[O-])cc2[N+](=O)[O-])o1,inactive: 18.9%
3,Cc1cc(-c2nc3ccccc3[nH]2)c2ccccc2n1.O=[N+]([O-])c1cc([N+](=O)[O-])c(O)c([N+](=O)[O-])c1,inactive: 6.79%
4,COc1ccc(NP(C)(=O)Oc2ccc(Cl)cc2)cc1 (centres undefined),inactive: -4.54%
5,CP(=O)(O)OC(c1ccccc1)C(F)(F)C(F)(F)F (centres undefined),inactive: 2.81%
6,Cc1ccc(Cl)c(OP(C)(=O)Nc2ccc(F)cc2)c1 (centres undefined),inactive: -0.5%
7,Cc1c([N+](=O)[O-])c(C)c([N+](=O)[O-])c(C)c1[N+](=O)[O-],inactive: 3.38%
8,[N-]=[N+]=NCN1c2nonc2N(CN=[N+]=[N-])c2nonc21,inactive: 7.57%
9,COc1ccc(OP(C)(=O)Nc2ccccc2)cc1 (centres undefined),inactive: 2.43%
10,Cc1ccccc1NP(C)(=O)Nc1ccccc1C,inactive: 4.35%
11,CP(=O)(Nc1ccc2c(c1)OCCO2)Oc1ccccc1 (centres undefined),inactive: -1.62%
12,CCN(CC)c1c([N+](=O)[O-])cc([N+](=O)[O-])cc1[N+](=O)[O-],inactive: 23.9%
13,COC(=O)Nc1nc2ccccc2[nH]1.O=C1CCCN1c1ccc(S(=O)(=O)O)cc1[N+](=O)[O-],inactive: 5.3%
14,COc1ccc(NP(C)(=O)Oc2ccccc2OC)cc1 (centres undefined),inactive: -0.34%
15,CC(=O)OC1(C#N)CN2CCC1CC2 (centres undefined),inactive: -1.26%
16,O=[N+]([O-])c1cc([N+](=O)[O-])c(Nc2c([N+](=O)[O-])cc([N+](=O)[O-])cc2[N+](=O)[O-])c([N+](=O)[O-])c1,inactive: 18.2%
17,CN(C)CCOC(=O)C(O)(c1ccccc1)C1CCCCC1 (centres undefined),active: 67.1%
18,O=[N+]([O-])c1ccc(Nc2c([N+](=O)[O-])cc([N+](=O)[O-])cc2[N+](=O)[O-])cc1,inactive: 9.89%
19,C=CCN1CCN(CCOC(=O)C(O)(c2ccccc2)c2ccccc2)CC1,inactive: 0.71%
20,CP(=O)(O)Oc1cccc(Cl)c1Cl,inactive: 4.54%
21,Cc1cc(-c2cccc3ccccc23)c(C)cn1.O=[N+]([O-])c1cc([N+](=O)[O-])c(O)c([N+](=O)[O-])c1,inactive: -8.47%
22,O=[N+]([O-])c1cc([N+](=O)[O-])c(NCC2CCS(=O)(=O)C2)c([N+](=O)[O-])c1 (centres undefined),inactive: 19.7%

row,Compound,inhibition
1,Cc1ccc(Cl)c(OP(C)(=O)Nc2cccnc2)c1 (centres undefined),inactive: -12.9%
2,CCOC(=O)c1ccc(NP(C)(=O)Oc2ccc(F)cc2)cc1 (centres undefined),inactive: -10.4%
3,O=C(c1c([N+](=O)[O-])cc([N+](=O)[O-])cc1[N+](=O)[O-])N1CCOCC1,inactive: 4.6%
4,CP(=O)(Nc1ccccc1)Oc1ccc(F)cc1 (centres undefined),inactive: 2.64%
5,COc1cc2c(cc1NP(C)(=O)Oc1ccccc1)oc1ccccc12 (centres undefined),inactive: 6.44%
6,Cc1ccc(NP(C)(=O)Oc2ccc(Cl)cc2)cc1 (centres undefined),inactive: 3.53%
7,CP(=O)(O)OC(c1ccccc1)C(Cl)(Cl)Cl (centres undefined),inactive: 4.55%
8,CP(=O)(Nc1ccccc1F)Oc1ccccc1 (centres undefined),inactive: -8.1%
9,C=CCNc1c([N+](=O)[O-])cc([N+](=O)[O-])c(C)c1[N+](=O)[O-],inactive: -2.93%
10,Nc1c([N+](=O)[O-])cc([N+](=O)[O-])c2nonc12,inactive: -36.6%
11,CCP1(=O)Oc2cc(C(C)(C)C)cc(C(C)(C)C)c2O1 (centres undefined),inactive: 6.52%
12,Cc1cc([N+](=O)[O-])c(NCC(C)([N+](=O)[O-])[N+](=O)[O-])c([N+](=O)[O-])c1[N+](=O)[O-],inactive: 0.44%
13,CP(=O)(Nc1cccnc1)Oc1ccc(Cl)cc1 (centres undefined),inactive: -10.5%
14,O=C(OCCN1CCN(CCOCc2ccccc2)CC1)C(O)(c1ccccc1)c1ccccc1,inactive: -2.55%
15,CN(C)CCOC(=O)C(O)(c1ccccc1)C1CCCC1 (centres undefined),inactive: 1.15%
16,CCN(CC)CCOC(=O)C(O)(c1ccccc1)C1CCCCC1 (centres undefined),inactive: 4.35%
17,COc1ccc(OP(C)(=O)Nc2ccccn2)cc1 (centres undefined),inactive: 9.65%
18,COc1ccccc1OP(C)(=O)Nc1ccc(Br)cc1 (centres undefined),inactive: -5.44%
19,NC(=O)c1c([N+](=O)[O-])cc([N+](=O)[O-])cc1[N+](=O)[O-],inactive: 14.3%
20,CN(C)c1c([N+](=O)[O-])cc([N+](=O)[O-])c(N(C)C)c1[N+](=O)[O-],inactive: 16%
21,CC(CN(C)C)OC(=O)C(O)(c1ccccc1)c1ccccc1 (centres undefined),inactive: 5.13%
22,CP(=O)(Nc1ccc(F)cc1)Oc1ccc(Cl)cc1 (centres undefined),inactive: 3.03%
